Legend:
Type in all cases: in vivo, mouse
Settings in all cases: tissue not given
IFN-γ = assay: mRNA expression of IFN-γ in PDAPP mice immunized with Aβ1-42 or a fragment, quantitative RT-PCR
Description: (§1) RNA was isolated from brain tissues using the S.N.A.P.™ Total RNA Isolation Kit (Invitrogen, Carlsbad, Calif.) according to manufacturer's instructions, with the following modifications: the tissue was homogenized for 20 seconds using a rotor-stator homogenizer (Fisher Scientific). The DNA digestion step was repeated a second time following isopropanol precipitation.
(§2) Quantitative PCR assays were run on a Perkin Elmer 7700 Sequencer using methods and materials provided by Perkin Elmer (Applied Biosystems Division, Foster City, Calif.). Primers and fluorescent probes were obtained from Perkin Elmer; the sequences and concentrations of primers and probes used for the various assays are listed in Table 1 below. PCR reactions were set up using approximately 300 nM concentrations of each of the forward and reverse primers, 100 nM probe and RNA extracted from the tissue of interest (20 ng). Each reaction also included a standard RNA for comparison. Data were normalized to total RNA or to GAPDH. […] Sample results were normalized to the amount of RNA measured by OD and or control message (e.g., GAPDH).
(§3) The results are presented below in Table 5 as a ratio of mRNA of Aβ-treated mice to non-Aβ-treated mice. […] Thus, the efficacy of Aβ-treatment can be assessed by comparing the mRNA expression of such markers.

Protein sequences, listed by entry. Tags and fused reporters are not part of them. Lines headed by an entry give the natural chain unless they say otherwise; changes in a name come on top.
UniProt P05067: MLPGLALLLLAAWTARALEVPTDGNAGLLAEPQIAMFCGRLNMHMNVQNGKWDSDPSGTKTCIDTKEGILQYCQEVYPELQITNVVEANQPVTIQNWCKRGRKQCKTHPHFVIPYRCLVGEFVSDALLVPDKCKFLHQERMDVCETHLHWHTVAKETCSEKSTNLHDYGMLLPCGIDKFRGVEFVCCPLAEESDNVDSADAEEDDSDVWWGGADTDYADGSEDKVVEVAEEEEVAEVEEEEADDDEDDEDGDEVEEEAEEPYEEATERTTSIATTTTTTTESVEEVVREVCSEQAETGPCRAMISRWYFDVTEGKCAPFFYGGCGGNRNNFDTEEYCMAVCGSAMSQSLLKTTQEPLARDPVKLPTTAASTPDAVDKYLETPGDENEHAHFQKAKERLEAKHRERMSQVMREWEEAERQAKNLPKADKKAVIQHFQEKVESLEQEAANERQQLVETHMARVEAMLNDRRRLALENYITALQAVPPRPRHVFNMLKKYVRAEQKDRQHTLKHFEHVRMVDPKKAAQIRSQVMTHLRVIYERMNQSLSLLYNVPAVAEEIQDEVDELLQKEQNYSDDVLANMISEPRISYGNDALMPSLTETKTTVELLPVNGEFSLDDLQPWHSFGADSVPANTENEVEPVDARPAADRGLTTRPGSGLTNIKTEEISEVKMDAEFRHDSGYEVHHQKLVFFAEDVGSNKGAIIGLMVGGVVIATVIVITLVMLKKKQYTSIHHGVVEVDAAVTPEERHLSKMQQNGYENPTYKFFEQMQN

MCP-1 = assay: mRNA expression of MCP-1 in PDAPP mice immunized with Aβ1-42 or a fragment, quantitative RT-PCR
Description: as §1, §2, §3

CD4 = assay: mRNA expression of CD4 in PDAPP mice immunized with Aβ1-42 or a fragment, quantitative RT-PCR
Description: as §1, §2, §3

Igk = assay: mRNA expression of Igk in PDAPP mice immunized with Aβ1-42 or a fragment, quantitative RT-PCR
Description: as §1, §2, §3

Aβ1-12: fragment of Aβ1-42 used to immunize PDAPP mice (DAEFRHDSGYEV; Amyloid-beta protein 42; UniProt P05067 672-683, looked up, fragment)
IFN-γ mRNA, ratio of Aβ-treated mice to non-Aβ-treated mice (IFN-γ): .43X | MCP-1 mRNA, ratio of Aβ-treated mice to non-Aβ-treated mice (MCP-1): 0.43X | CD4 mRNA, ratio of Aβ-treated mice to non-Aβ-treated mice (CD4): 0.59X | Igk mRNA, ratio of Aβ-treated mice to non-Aβ-treated mice (Igk): 1.89X
